Assay results: paper PMC7512223 (Molecular Diversity, 2020)

By UniProt entry, the sequences of proteins in these tests, tags left out.
UniProt P27338, whole entry: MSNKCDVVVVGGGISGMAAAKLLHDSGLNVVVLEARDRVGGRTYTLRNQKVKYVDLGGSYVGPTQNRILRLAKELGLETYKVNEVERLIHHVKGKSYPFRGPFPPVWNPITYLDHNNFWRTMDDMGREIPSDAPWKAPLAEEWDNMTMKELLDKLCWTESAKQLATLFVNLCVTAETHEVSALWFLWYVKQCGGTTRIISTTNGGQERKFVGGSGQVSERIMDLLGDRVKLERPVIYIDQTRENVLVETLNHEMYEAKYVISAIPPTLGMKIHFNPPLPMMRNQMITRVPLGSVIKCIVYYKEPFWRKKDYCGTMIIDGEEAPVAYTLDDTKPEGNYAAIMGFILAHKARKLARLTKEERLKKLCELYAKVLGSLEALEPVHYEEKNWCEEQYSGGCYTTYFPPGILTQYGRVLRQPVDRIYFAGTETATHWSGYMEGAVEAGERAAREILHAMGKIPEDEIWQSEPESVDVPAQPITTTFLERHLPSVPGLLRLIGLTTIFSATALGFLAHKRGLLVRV

Target: MAO-B (Homo sapiens, UniProt P27338)
Test: Inhibition of recombinant human MAO-B, kynuramine fluorometric assay
Assay type: biochemical
Conditions: MAO-B over MAO-A

`O=C1CCCc2cc(OCc3ccc(Cl)cc3)ccc21` [1g, 6-(4-Chlorobenzyloxy)-1-tetralone] was tested. Which “Selectivity index (SI) = IC50(MAO-A)/IC50(MAO-B)” value did it give?
Its value is 105.
